Assay results taken from patent publication US20210386721A1, “SUBSTITUTED PHENYLPROPENYL PYRIDINE DERIVATIVES, THEIR PREPARATION AND PHARMACEUTICAL APPLICATIONS” (SHANGHAI HAIYAN PHARMACEUTICAL TECHNOLOGY CO., LTD., priority 2019, published 2021).

Sequences of proteins named here, by UniProt entry; tags and fusion partners are left off. Residues count along the entry.
UniProt Q9NZQ7, 19-238 limits assumed: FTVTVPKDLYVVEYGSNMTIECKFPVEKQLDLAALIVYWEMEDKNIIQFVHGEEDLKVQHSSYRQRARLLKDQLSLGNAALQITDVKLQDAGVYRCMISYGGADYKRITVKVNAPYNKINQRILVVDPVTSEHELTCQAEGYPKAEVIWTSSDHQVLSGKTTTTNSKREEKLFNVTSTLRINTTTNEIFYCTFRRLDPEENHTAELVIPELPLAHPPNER

Tests used:
PD-1/PD-L1 = PD-1/PD-L1 (Homo sapiens, UniProt Q9NZQ7); assay: PD-1/PD-L1 binding assay (HTRF, PPI-HTRF); details: read-out: PPI-HTRF (IC50/nM); HTRF PD1/PD-L1 binding assay kit; 10 nM Tag1-PD-L1; 25° C.
Method: Assay 1 PD-1/PD-L1 Binding Assay
DMSO is from Sigma, Cat No: D5879; 384-well small volume plate (white) is from Greiner, Cat No: 784075; Anti-PD1 blocking antibody (IC50: 10 nM) is from Cisbio, Cat No: 64CUS000C-1a; Anti-PDL1 blocking antibody (IC50: 0.3 nM) is from Cisbio, Cat No: 64CUS000C-1b; HTRF PD1/PD-L1 binding assay kit is from Cisbio, Cat No: 63ADK000CPDPEB.
1. Prepare the compound to be tested at 2x concentration into 1× reaction buffer containing 4% DMSO;
2. Tag1-PD-L1 protein and Tag2-PD1 protein were prepared in 1× reaction buffer at concentrations of […] and 10 nM, respectively. The final reaction concentration of the experiment was 10 nM Tag1-PD-L1 and 2 nM […];
3. anti-Tag1-Eu3+ antibody is prepared in 1x concentration detection buffer at a ratio of 1:100;
4. anti-Tag2-XL665 antibody is prepared in 1x concentration detection buffer at a ratio of 1:25; Experimental steps
1. 5 μL of compounds to be tested (2×) was added;
2. 2.5 ul Tag1-PD-L1 protein and 2.5 ul Tag2-PD1 protein were added respectively, and the total reaction system is 10 ul, and reacted at 25° C. for 15 minutes;
3. 5 ul anti-Tag1-Eu3+ antibody and 5 ul anti-Tag2-XL665 antibody were added respectively, and reacted at 25° C. for 16 hours;
4. The fluorescence microplate reader HTRF reading program was used to read two readings at 665 nm and 620 nm, the ratio of the two wavelengths was used to judge the activity of the compound, and the IC50 of the compound to be tested is calculated by XLFIT5.0 (IDBS).

[1] = test system: Jurkat T(PD1 Luc-)/CHOK1(PDL-1); assay: Jurkat T(PD1 Luc-)/CHOK1(PDL-1) cell experiment (luciferase reporter); details: read-out: Jurkat T (PD1 Luc-/ CHOK1(PDL-1) (EC50/nM)); CHO/PD-L1-OKT3 cells co-cultured with Jurkat/PD1-NFAT-Luc cells for 6 hours; Bio-Glo luciferase signal
Method: Assay 2 Jurkat T(PD1 Luc-)/CHOK1(PDL-1) Cell Experiment
G418, Sangon Biotech #A100859-0001, Cat Number G108BA0003, 5 ml of deionized water being added into each bottle, store at 4° C.
CHO/PD-L1-OKT3 cells (constructed by referring to Promega's PD-1/PD-L1 Blockade Bioassays system) cultured in F-12K medium (containing 10% FBS, 800 ug/ml G418, 400 ug/ml D Hygromycin B) were planted into a 96-well plate at 2×10^4 per well, and incubated for 24 hours at 37° C. and 5% CO2. part of the medium was removed, and the test compound dissolved in DMSO with a final concentration of 1 uM was added, and DMSO at the same concentration was added into the control cells. Jurkat/PD1-NFAT-Luc cells (constructed by referring to Promega's PD-1/PD-L1 Blockade Bioassays system) were added at 5×10^5 per well at the same time, and cultured for 6 hours. The corresponding luciferase signal was detected by Bio-Glo™ (Promega, G7940) reagent. The EC50 of each compound to be tested was calculated through the non-linear regression of XLfit software.

Row | Structure (SMILES) | IC50 (PD-1/PD-L1) | EC50 [1]
1 | COc1cc(/C=C/c2cccc(-c3cccc(-c4nc5cc(CN6CC[C@@H](O)C6)cc(C(F)(F)F)c5o4)c3C)c2C)c(C(F)(F)F)cc1CN1CC[C@@H](C(=O)O)C1 | 2 nM | –
2 | COc1cc(/C=C/c2cccc(-c3cccc(-c4nc5cc(CN6CC[C@@H](O)C6)cc(C#N)c5o4)c3C)c2C)c(C(F)(F)F)cc1CN1CC[C@@H](C(=O)O)C1 | 1 nM | 41 nM
3 | COc1cc(C(=O)Nc2cccc(-c3cccc(/C=C/c4cc(OC)c(CN5CC[C@@H](C(=O)O)C5)cc4C(F)(F)F)c3C#N)c2C)ncc1CN1CC[C@@H](O)C1 | < 1 nM | 24 nM
